scFv variants of Ab-14 (heavy chain) against a SARS-CoV-2 spike peptide

Target: peptide PDVDLGDISGINAS, taken from heptad repeat 2 (HR2) of SARS-CoV-2 spike.

Parent: Ab-14, a human scFv built as VH, three GGGGS repeats, VL. Only the CDRs of the heavy chain vary.
VH: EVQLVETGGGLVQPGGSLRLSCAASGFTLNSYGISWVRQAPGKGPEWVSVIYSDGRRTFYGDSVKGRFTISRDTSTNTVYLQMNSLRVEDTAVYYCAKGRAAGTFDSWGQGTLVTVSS
VL: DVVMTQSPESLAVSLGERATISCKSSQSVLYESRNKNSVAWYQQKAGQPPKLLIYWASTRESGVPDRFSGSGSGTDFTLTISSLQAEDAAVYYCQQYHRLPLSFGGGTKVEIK

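Library AAYL49 holds single substitutions and randomly drawn double and triple substitutions in the CDRs. In AlphaSeq, yeast of one mating type display the scFv and yeast of the other type display the target. Mating (16 h, 30 °C) was followed by selection of diploids and sequencing of their barcodes. Scores were corrected for input abundance and mapped to Kd with protein pairs of known affinity run in the same pool. There are three technical replicates.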

Each variant is given by its three heavy chain CDRs, as the data file delimits them; those of the parent are GFTLNSYGIS, VIYSDGRRTFYGDSVK, GRAAGTFDS.
Values are log10 of the apparent Kd in nM; lower means stronger binding.
Averages over replicates are reported, and they cover detected replicates only.
A pair that was not seen in any replicate is written "nd"; this usually means weak binding, but a binder can also be missed.
For reference, the parent read 0.65 as the reference entry and 4.11 (one replicate of three) as a member of this library.
Empty control strains, which show no peptide, gave a signal in 15% of pairings with library AAYL49; the median was 4.06 and 95% of these signals were weaker than 2.83. No background was subtracted.

log10 Kd (nM), mean | detected | CDR-H1 | CDR-H2 | CDR-H3
4.44 | 2 of 3 | GFTLNSYGIR | VIYSDGRETFYGDSVK | WRAAGTFDS
nd | 0 of 3 | GFTLNSYGIS | VIYSDGRRTIYGDSVD | GRPAGTFDS
nd | 0 of 3 | GFDLNSYGPS | AIYSDGRRTFYGDSVK | GRAAGTFDS
nd | 0 of 3 | GFTLNSVGIS | VIYEDGRRTFYGDSVK | GRAAGTFDS
nd | 0 of 3 | GFTLNSYGIS | VWYSDGRPTDYGDSVK | GRAAGTFDS
nd | 0 of 3 | GFHLNSYGIS | VIYSDGRRTFQGDSVK | GRAAGTFDS
3.09 | 1 of 3 | GFTLNSYGIS | VIYSDGRRTFCGDSVE | GRAAGTFDS
nd | 0 of 3 | GFTLNSYGIS | VIYSDGRRTFYGDSYK | GEAAVTFDS
3.69 | 1 of 3 | GFTLFSYGIS | VIYSAGRRTFYGDSVK | GRAAGTKDS
4.46 | 3 of 3 | GCTLNSYGIS | VIYSDHRRTWYGDSVK | GRAAGTFDS
nd | 0 of 3 | VFTLNSYGIS | VIQSDGRRTFYEDSVK | GRAAGTFDS
nd | 0 of 3 | GFTLNSYEAS | VIYSDGRRTFYGDSQK | GRAAGTFDS
nd | 0 of 3 | GFTPRSYGIS | HIYSDGRRTFYGDSVK | GRAAGTFDS
3.77 | 1 of 3 | GFTLNSYLIS | VIYSDGRRFFYGDSVK | GWAAGTFDS
nd | 0 of 3 | GFTLNSYGIS | VIYSVGRRTFYNDSVK | GRAAGTDDS
nd | 0 of 3 | GFTLNSNGIS | VIYSDGFRTFYGDSVK | GRAAWTFDS
-0.06 | 3 of 3 | GFTLNEYGIS | VIYSDGRRTFYGDSVK | GRLAGTFDL
nd | 0 of 3 | GFTLNSYGIS | VILSDGRRTFYGDSVT | GVAAGTFDS
3.49 | 1 of 3 | GFTLDSYGIS | VIYSDGRETFYGDSVK | GRAAGSFDS
nd | 0 of 3 | GFTLNSYGIS | VIYSDGRGTFYGPSVK | GRAAGTFDF
4.37 | 2 of 3 | GFTLNSYGIS | VITSDGRRTFYGDSVK | GRAWGTFDG
nd | 0 of 3 | GYTLNSYGYS | VIYSFGRRTFYGDSVK | GRAAGTFDS
nd | 0 of 3 | GFTLNSYGIA | VIYSDGRRTFYGPSVK | GRAAGTFES
3.85 | 1 of 3 | GFTLNYYGIS | VIYSDGRRTFYGDIVK | GRAAGTRDS
nd | 0 of 3 | GFTLNSYGDS | VIVSDGRRTFYGDSVI | GRAAGTFDS
2.47 | 3 of 3 | GFTLNSYGIS | VIYSDGRRTFLGDSVK | GKAAGTFDV
nd | 0 of 3 | GFTDNSYGIS | VIVSDGRYTFYGDSVK | GRAAGTFDS
2.57 | 1 of 3 | GFTLNSYGII | VIYSDGRRTFMGDSVK | GVAAGTFDS
3.18 | 1 of 3 | VFTLNSYGIS | YIYSDGRRTFYGDSVK | GRKAGTFDS
5.06 | 1 of 3 | GFTLNPYGIS | VIVSDGRRTFYGDSVK | PRAAGTFDS
nd | 0 of 3 | GFTLNSYGIS | VIYSDGRCTFYGDSLK | GRAAGTFDS
nd | 0 of 3 | GFTLNSHGIS | VIYSDGRRTFYGDSVI | GRAAGTTDS
3.93 | 3 of 3 | GFTLNSYGIS | VIYSDGRYTFYCDSVK | GRAAGTFDP
nd | 0 of 3 | GFTLNSYGIS | VIYSDGRTTFYMDSVK | GRAAGTSDS
5.60 | 2 of 3 | GFTLNSYIIS | VIYSDGRRTFYGDTVK | GRAHGTFDS
nd | 0 of 3 | GFKLNSYGIS | WIYSDGRRTFQGDSVK | GRAAGTFDS
nd | 0 of 3 | GCTLNSYAIS | VIYSDGRRTFYGDSVK | QRAAGTFDS
nd | 0 of 3 | LFTLNPYGIS | VIYSDGRRVFYGDSVK | GRAAGTFDS
nd | 0 of 3 | GFTLNSYGIS | VIDSDGRRTWYGDSVK | GRAAGMFDS
nd | 0 of 3 | GFTLNSYGCS | VIHSDGRRTFYGDSVK | GFAAGTFDS
0.96 | 3 of 3 | GFTLNSYGIS | VIYSDGRRKFYCDSVR | GRAAGTFDS
nd | 0 of 3 | GFTLNSYGIS | VIYSDGCRTFYGDSVK | GRAAGTFIS
4.28 | 1 of 3 | GFSLNSYAIS | VIYSDGRRTFYGDSVK | GRAAGTFDS
nd | 0 of 3 | GFTLNSFGIS | VWYSDGRVTFYGDSVK | GRAAGTFDS
3.06 | 1 of 3 | GFTLNSYHIS | VIYRNGRRTFYGDSVK | GRAAGTFDS
0.74 | 3 of 3 | GFTLNSYGIS | VIYSDGRRTFYGDSVK | GRGAGWVDS
nd | 0 of 3 | GFTLNSYGLH | VIYSDGRRTFIGDSVK | GRAAGTFDS
2.14 | 3 of 3 | GFTLNMYGIS | VIYSDGRRTFYGDSVK | GRARGTFNS
2.01 | 3 of 3 | GPTLESYGIS | VIYSDGRRTFYGDSVK | GRAAVTFDS

Excerpt, the final 8 entries:

| CDR-H1 | CDR-H2 | CDR-H3 | log10 Kd (nM), mean | detected |
|---|---|---|---|---|
| GFTLNSYGIS | VIYSDGCRTFYGDSVK | GRAAGTFIS | nd | 0 of 3 |
| GFSLNSYAIS | VIYSDGRRTFYGDSVK | GRAAGTFDS | 4.28 | 1 of 3 |
| GFTLNSFGIS | VWYSDGRVTFYGDSVK | GRAAGTFDS | nd | 0 of 3 |
| GFTLNSYHIS | VIYRNGRRTFYGDSVK | GRAAGTFDS | 3.06 | 1 of 3 |
| GFTLNSYGIS | VIYSDGRRTFYGDSVK | GRGAGWVDS | 0.74 | 3 of 3 |
| GFTLNSYGLH | VIYSDGRRTFIGDSVK | GRAAGTFDS | nd | 0 of 3 |
| GFTLNMYGIS | VIYSDGRRTFYGDSVK | GRARGTFNS | 2.14 | 3 of 3 |
| GPTLESYGIS | VIYSDGRRTFYGDSVK | GRAAVTFDS | 2.01 | 3 of 3 |

The measurements come from Engelhart et al. 2022 (doi:10.1038/s41597-022-01779-4) through the FLAb antibody collection.